Source: paper PMC10992144, “Construction of fatty acid derivatives from rubber seed oil as α-glucosidase inhibitors based on rubber seed oil” (Bioresources and Bioprocessing, 2022)

Protein sequences, listed by entry. Tags and fused reporters are not part of them.
UniProt P53341, whole entry: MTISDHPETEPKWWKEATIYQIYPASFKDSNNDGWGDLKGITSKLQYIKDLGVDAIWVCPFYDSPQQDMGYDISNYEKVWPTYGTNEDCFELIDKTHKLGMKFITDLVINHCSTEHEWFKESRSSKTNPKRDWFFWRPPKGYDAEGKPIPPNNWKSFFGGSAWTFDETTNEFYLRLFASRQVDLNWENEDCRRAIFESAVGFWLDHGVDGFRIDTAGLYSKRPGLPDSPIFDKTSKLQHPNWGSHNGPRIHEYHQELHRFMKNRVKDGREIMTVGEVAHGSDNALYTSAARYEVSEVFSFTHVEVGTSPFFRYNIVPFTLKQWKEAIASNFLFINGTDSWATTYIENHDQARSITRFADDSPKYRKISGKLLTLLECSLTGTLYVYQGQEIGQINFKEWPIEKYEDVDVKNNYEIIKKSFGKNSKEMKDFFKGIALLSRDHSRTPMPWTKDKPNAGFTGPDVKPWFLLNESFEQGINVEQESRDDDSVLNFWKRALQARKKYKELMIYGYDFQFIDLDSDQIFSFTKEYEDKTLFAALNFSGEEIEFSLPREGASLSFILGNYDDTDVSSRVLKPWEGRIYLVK

Target: α-Glucosidase from recombinant yeast (Saccharomyces cerevisiae, UniProt P53341)

CC/C=C\C/C=C\C/C=C\C/C=C\C/C=C\CCCC(=O)O
IC50 (0.1 M phosphate buffer pH 6.9, 0.5% DMSO, 37 °C, α-PNPG, mean ± SD (n = 3)): 480 nM | Inhibitory score (Tables 2, 3, S2, S3, method defines score as 1/IC50, but values match the regression model of b37): 6.70
